Two molecules from patent US20180346446A1, “IRE1 SMALL MOLECULE INHIBITORS” (QUENTIS THERAPEUTICS, INC., priority 2017, published 2018) can be followed below.

Chains of the proteins cited; added tags and fusions are not shown. Residues count along the entry.
UniProt O75460, 19-977 limits assumed: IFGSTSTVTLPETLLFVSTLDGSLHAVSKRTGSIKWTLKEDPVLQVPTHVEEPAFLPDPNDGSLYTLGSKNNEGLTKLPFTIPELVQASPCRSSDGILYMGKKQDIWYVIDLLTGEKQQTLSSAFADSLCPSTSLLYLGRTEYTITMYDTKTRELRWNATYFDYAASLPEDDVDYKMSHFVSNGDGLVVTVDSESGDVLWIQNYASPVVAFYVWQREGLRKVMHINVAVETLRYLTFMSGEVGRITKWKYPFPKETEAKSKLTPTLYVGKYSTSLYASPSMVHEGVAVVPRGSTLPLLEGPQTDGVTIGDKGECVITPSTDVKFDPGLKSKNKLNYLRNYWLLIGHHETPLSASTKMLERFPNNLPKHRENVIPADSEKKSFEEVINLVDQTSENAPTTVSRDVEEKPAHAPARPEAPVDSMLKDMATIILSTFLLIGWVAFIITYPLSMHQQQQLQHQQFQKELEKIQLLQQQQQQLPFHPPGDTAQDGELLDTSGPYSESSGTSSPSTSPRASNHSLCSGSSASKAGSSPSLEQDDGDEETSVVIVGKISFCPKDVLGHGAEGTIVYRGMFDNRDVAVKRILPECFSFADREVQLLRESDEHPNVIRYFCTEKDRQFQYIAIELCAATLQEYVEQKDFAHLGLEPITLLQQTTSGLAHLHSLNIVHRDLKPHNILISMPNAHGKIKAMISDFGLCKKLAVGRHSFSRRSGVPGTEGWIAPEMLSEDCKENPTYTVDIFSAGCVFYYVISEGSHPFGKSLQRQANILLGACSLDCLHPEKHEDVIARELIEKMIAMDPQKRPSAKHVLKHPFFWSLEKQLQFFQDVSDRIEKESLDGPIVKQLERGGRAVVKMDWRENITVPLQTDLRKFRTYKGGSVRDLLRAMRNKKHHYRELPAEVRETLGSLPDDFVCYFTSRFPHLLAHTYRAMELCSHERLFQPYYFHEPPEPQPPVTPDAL

Experiment [1] concerns the target T1, IRE1a (Homo sapiens, UniProt O75460). As to the kind of experiment: In vitro FRET assay (XBP1 RNA probe cleavage by IRE1a). The note with it: read-out: Mean IC50, 2 nM IRE1a protein. As for the experimental part:
In vitro FRET assay was performed to evaluate the ability of select compounds to inhibit IRE1, the results of which are summarized in Table 3. To perform the in vitro FRET assay, 1× complete assay buffer (CAB; […], 50 mM sodium citrate pH 7.15, ImM magnesium acetate, 0.02% tween 20) was used to dilute SignalChem IRE1a protein to a final concentration of 2 nM. Selected compounds were serially diluted with DMSO in a non-binding black 384-well plate for a total of 15 ul in each well. 2 ul of the serially diluted compound or DMSO control were then added to new wells containing 98 ul of 1×CAB, for a total volume of 100 ul, 10 ul of which were then transferred to wells of a new plate. 5 ul of the diluted IRE1a was then added to each well. 5 ul of a […] XBP1 RNA probe was then added to each well. Fluorescence was then read over 30 minutes in kinetic mode (485/515 nm).
Two RNA probes were used, XBP1 wildtype (SEQ ID NO: 2) which is able to be spliced by active IRE1a or XBP1 mutant (SEQ ID NO: 3) which is unable to be spliced. Each probe contained a 5′ 6-FAM modification and a 3′ IOWA Black FQ modification. […]

Experiment [2] addresses T1, IRE1a. The experiment is described as follows: IRE1a Endoribonuclease Nanoluciferase Assay (XBP1 luciferase reporter in 293T cells). The note with it: read-out: Mean EC50; 293T cells transfected with XBP1 luciferase reporter, ER stressors +/- inhibitors. How it is done:
Compounds disclosed herein were assessed for disruption of IRE1 signaling using a IRE1a Endoribonuclease Nanoluciferase Assay. Briefly, 2.5×10^6 293T cells were seeded in a 10 cm^2 tissue culture plate. About 24 hours later, the cells were transfected with Effectene. In a 15 mL Tube, the following was added: 2 ug XBP1 luciferase reporter plasmid (PGK-Luc2-P2A-XBP1u-Nanoluciferase-PEST); 300 ul EC buffer; and 16 ul Enhancer, followed by incubation at room temp for 5 minutes. Next, 60 ul Effectene (Qiagen 301427) was added, followed by incubation at room temperature for 10 minutes. 2.6 mL cDMEM media was added. Old media was aspirated from the cells, followed by addition of 7 mL fresh media. Full transfection mixture was added dropwise to cells. Cells were incubated for 6 hours, followed by trypsinization, centrifugation and resuspension in 11 mL media. 100 uL of cells were plated per a well in a 96 well plate. A day later, ER stressors of choice +/− inhibitors were added. To harvest, media was aspirated from cells completely, then 50 uL 1× passive lysis buffer (Promega: E1941) was added per well and put on shaker (300 rpm) for 30 minutes at room temperature. […] Plates were read on luminometer, 1000 ms integration time per well. […] Plates were read on luminometer, 1000 ms second integration time per well. […]
A general note: Reporter assays use an easily measured gene product as a stand-in for the process of interest.

Molecules are shown by their SMILES. A value given as a limit tells only on which side of the number the result lay.

In the case of `N[C@H]1CC[C@H](Nc2ncc3cc(-c4cc(F)c(NS(=O)(=O)c5ccccc5Cl)cc4F)ccc3n2)CC1`, the IC50 on IRE1a [1] was < 5 nM. On IRE1a [2], the EC50 was < 5 nM.
Take `CCc1cc(-c2ccc(NS(=O)(=O)c3ccccc3Cl)c(F)c2)cc2cnc(N[C@H]3CC4C[C@H](N)CC4C3)nc12` (single isomer, unassigned): the IC50 at IRE1a [1] was in the range of 5 to 50 nM. Moreover, the EC50 at IRE1a [2] was in the range of 50 to 100 nM.

One may read the IC50 as the concentration that gives 50% inhibition. In general, EC50 refers to the midpoint of the concentration-response curve.
